## Measured affinities in a library of Ab-14 light chain variants

Reference: Engelhart et al. 2022, doi:10.1038/s41597-022-01779-4. File: FLAb, binding data.

The target is the same throughout: PDVDLGDISGINAS, from the HR2 region of SARS-CoV-2 spike.

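AAYL50 was designed without a model: most single CDR substitutions and a random sample of double and triple ones. In AlphaSeq, yeast of one mating type display the scFv and yeast of the other type display the target. The frequency of each diploid, read from paired DNA barcodes, reflects how well the two displayed proteins bind. Each replicate has its own calibration line, from reference interactions of the BCL2 family. There are three technical replicates.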

Each scFv is VH, three GGGGS repeats, VL, as in the parent Ab-14, and differs from it in the CDRs of the light chain only.
VH: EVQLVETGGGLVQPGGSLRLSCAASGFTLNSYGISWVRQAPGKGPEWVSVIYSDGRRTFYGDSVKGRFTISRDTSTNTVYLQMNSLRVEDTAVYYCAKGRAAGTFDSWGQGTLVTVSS
VL: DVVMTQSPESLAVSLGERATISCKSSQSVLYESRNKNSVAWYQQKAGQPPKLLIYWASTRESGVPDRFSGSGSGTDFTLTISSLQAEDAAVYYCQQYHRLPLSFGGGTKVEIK

Substitutions are numbered in sequence along the VL above, starting at 1 (not Kabat).
Numbers give log10(Kd / nM), so 0 is 1 nM and 3 is 1 µM. Smaller is tighter.
A mean of the replicates is given; it leaves out those without a signal.
"nd" means that the variant was in the library but no mating with the target was seen in any replicate; the authors take this as a sign of poor binding, and no number exists.
The list is sorted by this average, lowest first, undetected variants last.
Background: pairings of library AAYL50 with three empty control strains gave a value in 18% of cases (median 4.19, 5th percentile 2.99). Values in that range, when seen in few replicates, are hard to tell from nonspecific mating.

| changes | mean log10 Kd (nM) | replicates with signal |
|---|---|---|
| Y31G W56R Q96S | 0.36 | 3/3 |
| N35G K36L | 0.52 | 3/3 |
| R34N K36H P101V | 0.63 | 3/3 |
| V29H R34I S62A | 0.65 | 3/3 |
| S62Q Q95T L102P | 0.72 | 3/3 |
| S25V L30A S58I | 0.79 | 3/3 |
| Q27N S28A R99M | 0.91 | 3/3 |
| Y31W T59V H98L | 1.39 | 3/3 |
| K24Y S26D S103C | 1.40 | 3/3 |
| E32R S62E | 1.44 | 3/3 |
| Q95S H98F L102N | 1.46 | 3/3 |
| Q27P L30T R34F | 1.53 | 3/3 |
| Y31N N37K T59L | 1.55 | 3/3 |
| S25M R34S L100V | 1.58 | 3/3 |
| S25Y E32K R99G | 1.71 | 3/3 |
| W56T Q95E L100F | 1.72 | 3/3 |
| S26V R34Y H98V | 1.80 | 3/3 |
| S33P Q96L H98D | 1.80 | 3/3 |
| Y31G E61H L100E | 1.84 | 3/3 |
| S28E S33R L100E | 1.85 | 3/3 |
| L30W E32R K36R | 2.00 | 3/3 |
| K24I S28Q T59N | 2.54 | 1/3 |
| Y31E N37P | 2.55 | 1/3 |
| K24L W56L E61K | 2.63 | 2/3 |
| R34Y H98T R99N | 2.70 | 3/3 |
| E32V E61I P101I | 2.71 | 3/3 |
| K24E R99C S103W | 2.71 | 2/3 |
| N37P S58E R60G | 3.03 | 1/3 |
| S33K N35F S58K | 3.14 | 1/3 |
| N35A S38T S103M | 3.18 | 2/3 |
| V39T A57K T59E | 3.34 | 1/3 |
| R34K S38I R60D | 3.41 | 2/3 |
| K36S W56I S103Q | 3.44 | 3/3 |
| K36T N37F S62F | 3.46 | 3/3 |
| S28E N37Y Q96I | 3.65 | 2/3 |
| R34H V39K S58V | 3.65 | 2/3 |
| S28I S38Y S62L | 3.73 | 2/3 |
| N35Y Q95S L100G | 3.78 | 2/3 |

Second part, the sequence after the result:

| mean log10 Kd (nM) | replicates with signal | changes |
|---|---|---|
| 3.82 | 2/3 | K24M Q95S P101G |
| 3.93 | 1/3 | A40V E61D |
| 4.00 | 2/3 | N35A S62G S103Y |
| 4.04 | 1/3 | Y31F N37L P101D |
| 4.23 | 1/3 | S28M N37W T59P |
| 4.28 | 3/3 | V39D R99S |
| 4.38 | 2/3 | E32T Y97P S103C |
| 4.43 | 3/3 | S28C N35F Q96W |
| 4.46 | 3/3 | K24W E61M Y97M |
| 4.52 | 1/3 | V29I A40T W56Y |
| 4.54 | 1/3 | S28L S58W P101L |
| 4.56 | 2/3 | S26L A40Y |
| 5.07 | 2/3 | N35L R60A E61S |
| 5.13 | 3/3 | K24V S38W A40F |
| 5.23 | 2/3 | A57F T59V E61F |
| 5.42 | 1/3 | K36R Q95R P101R |
| 5.66 | 1/3 | S28W N35G L102H |
| nd | 0/3 | S28Q N37A R60M |
| nd | 0/3 | N37K S58H |
| nd | 0/3 | L30M S38T A57C |
| nd | 0/3 | S28G A40W |
| nd | 0/3 | S25C S33V R60E |
| nd | 0/3 | K36I A40M H98D |
| nd | 0/3 | K36V E61Q L102Y |
| nd | 0/3 | A40H L100I L102W |
| nd | 0/3 | L30G E32K Q95L |
| nd | 0/3 | L30Q E61H Q95F |
| nd | 0/3 | S38R Y97P S103P |
| nd | 0/3 | Q27L Y31W Q96K |
| nd | 0/3 | K24G N35Q |
| nd | 0/3 | S33D R34V A57P |
| nd | 0/3 | S38F L100K |
| nd | 0/3 | V29T H98S L102S |
| nd | 0/3 | Q95S Y97F P101G |
| nd | 0/3 | S58H R60G R99G |
| nd | 0/3 | K24C V39H L102E |
| nd | 0/3 | K24L S28T V39R |
| nd | 0/3 | S25T S28V Y97C |
| nd | 0/3 | S25Y S38R A40C |

For reference, 6 entries of the list once more:

{"changes": "K36T N37F S62F", "mean log10 Kd (nM)": "3.46", "replicates with signal": "3/3"}
{"changes": "S28I S38Y S62L", "mean log10 Kd (nM)": "3.73", "replicates with signal": "2/3"}
{"changes": "R34N K36H P101V", "mean log10 Kd (nM)": "0.63", "replicates with signal": "3/3"}
{"changes": "S25C S33V R60E", "mean log10 Kd (nM)": "nd", "replicates with signal": "0/3"}
{"changes": "A40V E61D", "mean log10 Kd (nM)": "3.93", "replicates with signal": "1/3"}
{"changes": "Q27P L30T R34F", "mean log10 Kd (nM)": "1.53", "replicates with signal": "3/3"}